In the assay the target is hCA I (Homo sapiens, UniProt P00915). In words: In vitro CA inhibition assay, hCA I. The assay is classed as biochemical. To be noted: unit from table title.

Amino acid sequences for entries named in this document (tags omitted). A change or cut given only in a name is not applied to a line headed by its entry.
UniProt P00915: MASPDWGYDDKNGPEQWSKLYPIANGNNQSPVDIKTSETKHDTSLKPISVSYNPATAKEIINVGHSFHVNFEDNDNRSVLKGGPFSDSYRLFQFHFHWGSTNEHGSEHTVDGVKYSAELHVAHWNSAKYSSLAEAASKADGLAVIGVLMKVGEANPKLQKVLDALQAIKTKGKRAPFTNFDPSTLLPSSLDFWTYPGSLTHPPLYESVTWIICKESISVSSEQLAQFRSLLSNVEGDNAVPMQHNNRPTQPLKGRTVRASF

SMILES strings stand for the structures. A value given as a limit tells only on which side of the number the result lay.

The compound `Cc1cc(=O)oc2cc(O[C@@H]3OC[C@@H](O)C(O)C3O)ccc12` (stereo partly drawn) [MST-207, 4-methylumbellifer-7-yl- -D-ribopyranoside] came in with an inhibitory constant (Ki) greater than 100 µM.
In the case of `Cc1cc(=O)oc2cc(OC3OCC(O)C(O)C3O)ccc12` [MST-201, 4-methylumbellifer-7-yl- -D-xylopyranoside] it was 3.4 µM.

For orientation: Ki means a dissociation constant, usually derived from enzyme kinetics or from competition with a known ligand. Higher therefore signals weaker binding.

The record behind these values is patent US20140148400A1, “CARBONIC ANHYDRASE INHIBITORS WITH […] ACTIVITY” (METASIGNAL THERAPEUTICS INC., priority 2010, published 2014).
